{"sequences": {"note": "Chains of the proteins cited; added tags and fusions are not shown.", "UniProt P37288, whole entry": "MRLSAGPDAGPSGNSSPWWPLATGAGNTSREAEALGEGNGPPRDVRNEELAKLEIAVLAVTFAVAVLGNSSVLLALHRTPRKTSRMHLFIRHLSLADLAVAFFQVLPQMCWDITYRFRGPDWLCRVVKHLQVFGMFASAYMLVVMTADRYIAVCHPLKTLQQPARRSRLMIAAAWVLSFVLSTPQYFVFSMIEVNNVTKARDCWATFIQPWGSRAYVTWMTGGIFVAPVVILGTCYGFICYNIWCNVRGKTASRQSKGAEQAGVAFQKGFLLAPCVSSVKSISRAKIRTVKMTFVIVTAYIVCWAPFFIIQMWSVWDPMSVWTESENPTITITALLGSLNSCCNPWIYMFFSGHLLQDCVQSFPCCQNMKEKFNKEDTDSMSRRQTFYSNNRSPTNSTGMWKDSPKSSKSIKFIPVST"}, "source": "patent US4762820A", "about": "“Therapeutic treatment for congestive heart failure” (Trustees of Boston University, priority 1986, dated 1988)", "key": {"vascular V1 receptors [1]": {"biological_target": "T1, vascular V1 receptors (Homo sapiens, UniProt P37288)", "T1 construct": "from tissue; host or cells: vasculature of living human patients (in vivo)", "conditions": "cited from earlier work"}, "vascular V1 receptors [2]": {"biological_target": "T1, vascular V1 receptors", "test": "Hemodynamic response to the AVP antagonist in patients with chronic congestive heart failure", "assay_type": "in vivo"}, "[3]": {"conditions": "group of ten patients as a whole"}, "[4]": {"conditions": "mean ± SEM, all 10 patients, after 0.5 mg i.v."}, "[5]": {"conditions": "three patients with vasopressin above normal, 0.5 mg i.v."}}, "note": "Read-outs that look alike come from different tables or passages of the source."}
{"substance": "[1-(β-mercapto-β,β-cyclopentamethylenepropionic acid), 2-(O-methyl)tyrosine]arginine vasopressin [AVP Antagonist]", "values": [{"measurement": "blood pressure", "setting": "vascular V1 receptors [1]; normally hydrated healthy human subjects", "value": "did not alter blood pressure"}, {"measurement": "blood pressure", "setting": "vascular V1 receptors [1]; sodium-loaded patients with end-stage renal disease, plasma AVP above normal", "value": "decrease the blood pressure"}, {"measurement": "cardiac index or stroke volume index", "setting": "vascular V1 receptors [2]; [3]", "value": "no significant changes"}, {"measurement": "systolic, diastolic or mean blood pressure, or other pressures", "setting": "vascular V1 receptors [2]; [3]", "value": "no significant change"}, {"measurement": "BP (mean blood pressure)", "setting": "vascular V1 receptors [2]; [4]", "value": "88.5 ± 3.2", "unit": "mmHg"}, {"measurement": "CI (cardiac index)", "setting": "vascular V1 receptors [2]; [4]", "value": "2.1 ± 0.2 1/min/2^2"}, {"measurement": "HR (heart rate)", "setting": "vascular V1 receptors [2]; [4]", "value": "89.0 ± 4.4", "unit": "BPM"}, {"measurement": "LVFP (left ventricular filling pressure)", "setting": "vascular V1 receptors [2]; [4]", "value": "24.5 ± 2.3", "unit": "mmHg"}, {"measurement": "PAP (mean pulmonary artery pressure)", "setting": "vascular V1 receptors [2]; [4]", "value": "37.1 ± 2.2", "unit": "mmHg"}, {"measurement": "PAR (pulmonary arteriolar resistance)", "setting": "vascular V1 receptors [2]; [4]", "value": 280, "unit": "d.s.c.^-5"}, {"measurement": "RAP (right atrial pressure)", "setting": "vascular V1 receptors [2]; [4]", "value": "10.0 ± 2.3", "unit": "mmHg"}, {"measurement": "SVI (stroke volume index)", "setting": "vascular V1 receptors [2]; [4]", "value": "24.6 ± 2.6", "unit": "m/m^2"}, {"measurement": "SVR (systemic vascular resistance)", "setting": "vascular V1 receptors [2]; mean, all 10 patients, after 0.5 mg i.v.", "value": 1810, "unit": "d.s.c.^-5"}, {"measurement": "change in systemic vascular resistance and cardiac index", "setting": "vascular V1 receptors [2]; remaining seven patients, 0.5 mg i.v.", "value": "absence of meaningful change"}, {"measurement": "clinical improvement, share of persons afflicted", "setting": "vascular V1 receptors [2]; ten patients with congestive heart failure", "value": "clinically signficant improvement in thirty percent"}, {"measurement": "cardiac index", "setting": "vascular V1 receptors [2]; [5]", "value": "increased"}, {"measurement": "systemic vascular resistance", "setting": "vascular V1 receptors [2]; [5]", "value": "declined"}, {"measurement": "time of maximum effect after administration", "setting": "vascular V1 receptors [2]; three responding patients, 0.5 mg i.v.", "value": "approximately 30 minutes"}]}
